# Results published in PMC12073449, “Development of a Mechanism of Action-Reflective Cell-Based Reporter Gene Assay for Measuring Bioactivities of Therapeutic Glucagon-like Peptide-2 Analogues” (Molecules, 2025).
# Biological target: T1, human GLP-2R (Homo sapiens, UniProt O95838)
# T1 construct: The full-length cDNA of human GLP-2R was synthesized, cloned, and inserted into the pLU.cmv.Zeo vector; expressed in transfected cells
# T1 sequence (O95838 1-553): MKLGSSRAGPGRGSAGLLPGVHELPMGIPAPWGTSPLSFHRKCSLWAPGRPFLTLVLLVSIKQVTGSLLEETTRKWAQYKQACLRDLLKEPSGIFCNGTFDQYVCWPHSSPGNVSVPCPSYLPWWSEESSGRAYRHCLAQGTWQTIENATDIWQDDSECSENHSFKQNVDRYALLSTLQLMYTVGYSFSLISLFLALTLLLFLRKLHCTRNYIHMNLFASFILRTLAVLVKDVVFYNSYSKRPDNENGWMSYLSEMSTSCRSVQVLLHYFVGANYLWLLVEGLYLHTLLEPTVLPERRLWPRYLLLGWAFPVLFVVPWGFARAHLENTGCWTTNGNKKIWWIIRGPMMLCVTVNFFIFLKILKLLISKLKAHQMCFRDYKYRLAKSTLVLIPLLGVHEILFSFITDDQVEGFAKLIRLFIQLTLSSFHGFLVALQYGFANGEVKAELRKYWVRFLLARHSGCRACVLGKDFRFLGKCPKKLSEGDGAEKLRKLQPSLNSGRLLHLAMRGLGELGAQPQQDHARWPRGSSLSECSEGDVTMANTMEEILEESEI
# Assay: Cell-based reporter gene assay (RGA), HEK293-GLP-2R-Luc, CRE-luciferase
# Conditions: diluted to 2.665 µmol/L and further 7-fold for 10 concentration points; HEK293-GLP-2R-Luc cells
# Description: To generate a HEK293 cell line stably expressing CRE-driven luciferase and GLP2R, the CRE-miniP.Luc virus-containing cell supernatants were diluted in DMEM in the presence of 8 µg/mL polybrene before being added to HEK293 cells. To obtain a stable cell pool, the medium was replaced 48 h after incubation, with fresh culture medium containing 3 µg/mL puromycin. After about 3 weeks selection, the cell pool was then further infected with pLU.cmv-GLP2R.Zeo virus and selected with 200 µg/mL Zeocin and 3 µg/mL puromycin. […] The expression of GLP-2R was examined using flow cytometry. After that, the positive clones were routinely maintained in selective medium.
# Cell-based RGA has been described previously. Briefly, 50 microliters of HEK293-GLP-2R-Luc cells were seeded into a 96-well white plate at a density of 4 × 10^4 cells/well. The cells were then incubated at 37 °C with 5% CO2 overnight (16 to 24 h). […] After 5 h of incubation, 100 µL of britelite plus reporter Gene Assay reagent were added to each well and mixed thoroughly under subdued light conditions for 5 min. The RLU signal was then determined with a SpectraMax M5e multimode plate reader (Molecular Devices, San Jose, CA, USA).
# The RGA was validated as described previously. […] Samples of each potency level were tested by two analysts 8 times in total. […] The response of HEK293-GLP2R-Luc cells to these samples were determined as illustrated in 4.6.
# The lower/upper asymptote was determined by the ratio of the top asymptote to the bottom asymptote when RGA best fit the 4PL model. The correlation coefficient (R^2), deviations from parallelism, and the regression in the 4PL model were estimated using SoftMax® Pro 7.1 software (Molecular Devices, San Jose, CA, USA). Specifically, a linear regression with an R^2 value no less than 0.98 was considered to have a very good fit. Additionally, a p-value below 0.01 was regarded as statistically significant. […] All the dose-response curves were plotted using GraphPad Prism® software 8.0.2 (GraphPad, Boston, MA, USA).
row,Substance,concentration–response curve in RGA (specificity)
1,Recombinant human chorionic gonadotrophin [rCG],no dose–dependent response curve was induced
2,Recombinant human luteinizing hormone [rLH],no dose–dependent response curve was induced
3,recombinant human Interleukin-2 [IL-2],no dose–dependent response curve was induced
